In patent US20100113332A1, “METHOD OF TREATING AN INFLAMMATORY DISEASE BY DOUBLE STRANDED RIBONUCLEIC ACID” (NASTECH PHARMACEUTICAL COMPANY INC., priority 2004, published 2010):

Tested on: TNF-α mRNA
Test: TNF-α knockdown in human monocytes (branch DNA);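 further: LPS-activated human CD14+ monocytes, TNF-α mRNA read by branched DNA assay and normalized to cypB mRNA, knockdown compared with random-sequence Qneg siRNA as negative control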
[1] = siRNA 4 nM complexed with 1.6 uM PN73
[2] = siRNA 4 nM complexed with 1.6 uM PN509

| Sequence | KD (%) TNF-α [1] | KD (%) TNF-α [2] |
| --- | --- | --- |
| AAGGGACCUCUCUCUAAUCAG [LC11] | 7.89% | 25.65% |
| AAGUCAGAUCAUCUUCUCGAA [LC10] | 13.52% | 25.62% |
